Results from paper PMC10259452 (Journal of Medicinal Chemistry, 2023).

What was measured:
MDR1-MDCKII cells = conditions: MDCK-MDR1

Row | Caco-2 permeability in the A–B direction, grade in words (Caco-2 cells) | MDR1-MDCKII permeability in the A–B direction, grade in words (MDR1-MDCKII cells) | Compound
1 | high permeability | high | Cn1ccnc1SCC(=O)Nc1sc2c(c1C(=O)NCc1ccccc1)CCCC2 [Compound 16, N-Benzyl-2-(2-((1-methyl-1H-imidazole-2-yl)thio)acetamido)-4,5,6,7-tetrahydrobenzo[b]thiophene-3-carboxamide]
2 | high permeability | high | CC1CCc2c(sc(NC(=O)c3ccccc3F)c2C(=O)N2CCN(C)CC2)C1 (centres unmarked) [Compound 6, 2-Fluoro-N-{6-methyl-3-[(4-methyl-1-piperazinyl)carbonyl]-4,5,6,7-tetrahydro-1-benzothien-2-yl} Benzamide]
3 | low permeability | moderate | CCC1CCc2c(sc(NC(=O)c3ccnn3C)c2C(=O)Nc2ccccc2C)C1 (centres unmarked) [Compound 4, N-(6-Ethyl-3-{[(2-methylphenyl)amino]carbonyl}-4,5,6,7-tetrahydro-1-benzothien-2-yl)-1-methyl-1H-pyrazole-5-carboxamide]
4 | high permeability | high | C[C@@H]1CCN(C(=O)c2c(NC(=O)c3cccnc3)sc3c2CCCC3)[C@H](C)C1 [Compound 13, N-(3-((2R,4R)-2,4-Dimethylpiperidine-1-carbonyl)-4,5,6,7-tetrahydrobenzo[b]thiophen-2-yl) Nicotinamide]
